Values of other authors in patent US20220183964A1, “IMPLANTABLE POLYMER DEPOTS FOR THE CONTROLLED, SUSTAINED RELEASE OF THERAPEUTIC AGENTS” (Foundry Therapeutics, Inc., priority 2019, published 2022).

Details: PVP electrospun nanofiber with 2.5 wt % Tween 20

maraviroc
time for complete release of 28 wt % maraviroc: six minutes
